Molecular target: Carbonic anhydrase IX (human (endogenous in MDA-MB-231)) (UniProt Q16790)
Test: SDS-PAGE under non-reducing and reducing conditions with western blot

Carbonic anhydrase IX (from UniProt Q16790 38-459) (enzyme)
stoichiometry N: 2
